This series can be described thus: Kinetic aqueous solubility of compound at pH 7.4. The note with it: buffer, read-out: Kinetic_solubility. Format: physicochemical.

Molecules are shown by their SMILES. Converted amounts (≈) assume the structure as drawn.

For the compound `CCN1C(=O)[C@@H](NC(=O)c2cccc(C)c2)[C@@H](c2ccc(F)cc2)c2c(C)nn(-c3ccccc3)c21` (relative stereo), the solubility kinetic is 16.6 µM (≈ 8.01 µg/mL).

The record behind these values is ChEMBL document CHEMBL4376818, “Discovery of Novel Pyrazolo-pyridone DCN1 Inhibitors Controlling Cullin Neddylation” (J Med Chem, 2019).
